Earlier results, collected in PMC2957921, “Evaluation of Computational Docking to Identify Pregnane X Receptor Agonists in the ToxCast Database” (Environmental Health Perspectives, 2010).

Chains of the proteins cited; added tags and fusions are not shown. Lines headed by an entry give the natural chain unless they say otherwise; changes in a name come on top.
UniProt O75469: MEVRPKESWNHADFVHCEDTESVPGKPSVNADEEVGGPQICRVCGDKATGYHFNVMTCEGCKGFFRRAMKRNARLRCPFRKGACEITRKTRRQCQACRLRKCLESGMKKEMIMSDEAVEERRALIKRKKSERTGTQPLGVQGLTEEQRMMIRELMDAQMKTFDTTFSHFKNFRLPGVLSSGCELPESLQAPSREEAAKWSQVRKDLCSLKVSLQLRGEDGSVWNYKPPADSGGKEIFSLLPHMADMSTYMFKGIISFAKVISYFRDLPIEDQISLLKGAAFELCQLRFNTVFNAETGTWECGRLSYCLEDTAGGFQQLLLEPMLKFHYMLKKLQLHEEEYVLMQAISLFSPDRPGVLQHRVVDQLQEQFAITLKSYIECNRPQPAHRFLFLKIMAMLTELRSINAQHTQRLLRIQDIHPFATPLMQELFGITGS

Biological target: hPXR (Homo sapiens, UniProt O75469)
Details: DPX-2 cells, ref Judson et al. 2010, cited from earlier work

For CC(C)OP(=S)(OC(C)C)SCCNS(=O)(=O)c1ccccc1, the “U.S. EPA ToxCast (NCGC) hPXR DPX-2 classification” value (cutoff for activity 200 μM) is listed as “A (A, agonist)” and the EC50 (read-out: U.S. EPA ToxCast (NCGC) hPXR DPX-2 EC50) is listed as 1570 nM.
